Apparent affinities of Ab-14 variants for a coronavirus HR2 peptide

Target: peptide PDVDLGDISGINAS, taken from heptad repeat 2 (HR2) of SARS-CoV-2 spike.

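The starting antibody came from a phage panning campaign against this peptide. The library (AAYL49) carries one to three amino acid substitutions per variant, with no insertions or deletions. The assay is AlphaSeq: two haploid yeast populations carry antibody and antigen on their surface. Mating (16 h, 30 °C) was followed by selection of diploids and sequencing of their barcodes. Scores were corrected for input abundance and mapped to Kd with protein pairs of known affinity run in the same pool. Each pool was mated in three replicate cultures.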

Each scFv is VH, three GGGGS repeats, VL, as in the parent Ab-14, and differs from it in the CDRs of the heavy chain only.
VH: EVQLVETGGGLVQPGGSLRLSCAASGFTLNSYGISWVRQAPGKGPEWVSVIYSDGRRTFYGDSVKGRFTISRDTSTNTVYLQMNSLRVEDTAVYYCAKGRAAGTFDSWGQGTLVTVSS
VL: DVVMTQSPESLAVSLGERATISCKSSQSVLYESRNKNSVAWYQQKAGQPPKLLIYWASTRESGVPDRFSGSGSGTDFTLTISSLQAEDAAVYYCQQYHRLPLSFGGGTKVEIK

Changes read parent residue, position, new residue, counted from the first residue of the VH shown. The read-out is the apparent dissociation constant on a log10 scale (nM): the lower, the stronger. The mean shown is taken over the replicates in which the pair was detected. "not detected" means that the variant was in the library but no mating with the target was seen in any replicate; the authors take this as a sign of poor binding, and no number exists. Three control strains display no target. For library AAYL49, 15% of the pairings with them gave a signal, with a median of 4.06 and one signal in twenty below 2.83, so weak values seen in few replicates may be background. Also given: how often the same scFv was detected with the empty control strains. In this assay the parent's reference entry averaged 0.65; its copy inside this library read 4.11 (one replicate of three).

changes	mean log10 Kd (nM)	seen in	signal with controls
L29K+Y32M+G55L	not detected	0/3	0/9
T28R+Y60S+F105E	not detected	0/3	0/9
N30Y+G61T	0.72	3/3	0/9
Y52A+D54K+T58N	not detected	0/3	1/9
Y52I+F59H+S107P	3.46	1/3	2/9
N30M+V50N+Y60L	not detected	0/3	1/9
N30P+A101C+F105L	3.01	3/3	0/9
Y32D+V64C+T104V	not detected	0/3	0/9
T58V+D62R+S107D	2.17	2/3	0/9
T28C+G99N+R100I	1.49	3/3	0/9
V50N+D54A+F59R	not detected	0/3	0/9
V50C+S63F	4.07	1/3	0/9
S53Q+F59C+R100Q	not detected	0/3	0/9
G33M+Y52C+G61P	not detected	0/3	0/9
D62C+R100E+F105I	2.13	1/3	2/9
T28I+Y32D+A102P	not detected	0/3	2/9
G55K+Y60Q	not detected	0/3	1/9
S31R+A101S+G103A	not detected	0/3	0/9
Y52C+S53I+D62P	not detected	0/3	0/9
Y32G+G55E+D62S	4.24	3/3	8/9
I51L+T104K+S107H	not detected	0/3	0/9
S31A+K65R+A101T	0.95	3/3	1/9
Y52H+Y60T+A101K	not detected	0/3	6/9
D54F+A102I+F105E	not detected	0/3	0/9
F27V+Y60D+G103P	not detected	0/3	1/9
S31T+G33W+G61N	not detected	0/3	2/9
S35R+G55A+A101N	3.86	1/3	1/9
A102K+F105D+S107Q	3.91	1/3	2/9
S31M+G55Y+Y60G	3.84	1/3	1/9
G26R+F27N	1.99	3/3	0/9
T28Y+Y60R+V64P	3.00	1/3	0/9

Further variants, results first:

mean log10 Kd (nM)	seen in	signal with controls	changes
not detected	0/3	2/9	S35V+T58I
3.34	3/3	2/9	S31Y+T58H+G103C
not detected	0/3	0/9	F27G+I51N+A102H
not detected	0/3	0/9	S31E+T58N+T104H
4.69	3/3	8/9	L29M+T58G+G99M
3.09	3/3	1/9	L29T+K65Y+G99S
3.27	1/3	0/9	N30T+A101L
not detected	0/3	1/9	F27N+Y60L+V64L
not detected	0/3	0/9	N30D+S31V+F59D
not detected	0/3	3/9	V50P+G103Y
not detected	0/3	1/9	G55K+A101T+S107I
5.58	3/3	6/9	I34Q+G55L+R56F
3.67	1/3	0/9	N30H+S53Y+S63N
4.71	1/3	2/9	L29R+G55A+K65Q
not detected	0/3	1/9	L29F+K65P
not detected	0/3	2/9	Y32Q+G55C
1.60	3/3	0/9	S31Y+Y32T+A101T
4.63	2/3	3/9	Y32R+S35N+F59S
not detected	0/3	2/9	N30R+F59P+A101L
not detected	0/3	0/9	L29P+I34K+D106F
2.45	3/3	1/9	G26A+S31V
not detected	0/3	3/9	Y52T+V64D+D106V
not detected	0/3	1/9	I34L+D54C+T58L
not detected	0/3	5/9	I51D+R100S
not detected	0/3	2/9	S35D+K65W+G103M
not detected	0/3	1/9	G26C+Y52P+G103Y
2.89	1/3	3/9	G33T+F105N+D106H
not detected	0/3	0/9	G26E+L29S+S63E
4.26	1/3	1/9	S63F+V64N+S107R
not detected	0/3	0/9	T28L+G55E+T104L
0.96	3/3	0/9	G26K+S31N+R56A

Picked from the list: the 4 lowest averages where every replicate gave a value.

changes	mean log10 Kd (nM)	seen in	signal with controls
N30Y+G61T	0.72	3/3	0/9
S31A+K65R+A101T	0.95	3/3	1/9
G26K+S31N+R56A	0.96	3/3	0/9
T28C+G99N+R100I	1.49	3/3	0/9

Reference: Engelhart et al. 2022, doi:10.1038/s41597-022-01779-4. File: FLAb, binding data.